Measured values reported in ChEMBL document CHEMBL4414598, “Trifluorinated Pyrimidine-Based A2B Antagonists: Optimization and Evidence of Stereospecific Recognition” (J Med Chem, 2019).

Key:
Homo sapiens [1] = species: Homo sapiens; experiment: Selectivity index, ratio of Ki for displacement of [3H]DPCPX from human recombinant A1 receptor expressed in CHOA1 cell membranes incubated for 60 mins by radioligand binding competition assay to Ki for displacement of [3H]DPCPX from human recombinant A2B receptor expressed in human HEK293 cell membranes at 1 uM incubated for 30 mins by radioligand binding competition assay
Homo sapiens [2] = species: Homo sapiens; experiment: Selectivity index, ratio of Ki for displacement of [3H]ZM241385 from human recombinant A2A receptor expressed in human HeLa cell membranes incubated for 30 mins by radioligand binding competition assay to Ki for displacement of [3H]DPCPX from human recombinant A2B receptor expressed in human HEK293 cell membranes at 1 uM incubated for 30 mins by radioligand binding competition assay
Homo sapiens [3] = species: Homo sapiens; experiment: Selectivity index, ratio of Ki for displacement of [3H]NECA from human A3 receptor expressed in human HeLa cell membranes incubated for 180 mins by radioligand binding competition assay to Ki for displacement of [3H]DPCPX from human recombinant A2B receptor expressed in human HEK293 cell membranes at 1 uM incubated for 30 mins by radioligand binding competition assay
[4] = molecular target: T1, Adenosine receptor A2b (Homo sapiens) (UniProt P29275); experiment: Displacement of [3H]DPCPX from human recombinant A2B receptor expressed in human HEK293 cell membranes at 1 uM incubated for 30 mins by radioligand binding competition assay relative to control
T1 sequence (whole entry): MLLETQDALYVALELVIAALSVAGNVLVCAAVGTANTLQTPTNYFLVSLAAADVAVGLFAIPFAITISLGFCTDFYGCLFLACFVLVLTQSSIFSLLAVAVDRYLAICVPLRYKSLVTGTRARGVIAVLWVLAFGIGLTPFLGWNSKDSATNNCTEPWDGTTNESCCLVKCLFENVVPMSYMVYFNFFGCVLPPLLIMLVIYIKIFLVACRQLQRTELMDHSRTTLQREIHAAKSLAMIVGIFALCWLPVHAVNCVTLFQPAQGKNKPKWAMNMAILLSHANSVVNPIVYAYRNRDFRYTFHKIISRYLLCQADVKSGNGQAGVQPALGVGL

inhibition [4] [%]	SMILES	Ratio Ki (Homo sapiens [1])	Ratio Ki (Homo sapiens [2])	Ratio Ki (Homo sapiens [3])
–	CC1=C(C(=O)OC(C)C(F)(F)F)C(c2ccco2)n2c(nc3ccccc32)N1 (racemic)	> 1000	> 1000	> 1000
–	CCOC(=O)C1=C(C(F)(F)F)Nc2nc3ccccc3n2C1c1ccoc1 (racemic)	> 1000	> 1000	> 1000
–	CC1=C(C(=O)OCC(F)(F)F)C(c2ccco2)n2c(nc3ccccc32)N1 (racemic)	> 1000	> 1000	> 1000
19	CCOC(=O)C1=C(C(F)(F)F)Nc2nc3ccccc3n2[C@H]1c1ccoc1	–	–	–
22	CC1=C(C(=O)OCC(F)(F)F)[C@H](c2ccco2)n2c(nc3ccccc32)N1	–	–	–
